Assay results published in patent publication US20250186419A1, “DOSING REGIMENS FOR TREATING PAIN” (VERTEX PHARMACEUTICALS INCORPORATED, priority 2023, published 2025).

Test system: painful diabetic peripheral neuropathy (DPN)
Experiment: Randomized, double-blind, active-controlled, dose-ranging, 4-arm study of Compound 1 in painful diabetic peripheral neuropathy (Example 8)
Conditions: Compound 1 combined dose groups; pregabalin 100 mg tid; 12 weeks
Description: The study population included male and female subjects 18 through 80 years of age, inclusive, with presence of bilateral pain in lower extremities due to DPN for at least 1 year, and weekly average Numeric Pain Rating Scale (NPRS) pain score of ≥4.
Subjects who met eligibility criteria entered a 7-day Run-in Period to establish their baseline Numeric Pain Rating Scale (NPRS) pain score and Daily Sleep Interference Scale (DSIS) score. Subjects with a baseline average NPRS score of ≥4 points with limited variation (SD<25% of mean) were eligible for the 12-week Treatment Period followed by a Safety Follow-up Visit.
Randomization was stratified by sex (female and male) and body mass index (≥30 and <30 kg/m^2). To maintain the blind, all subjects received the same number of tablets once daily (qd) in the morning and the same number of capsules 3 times per day (tid) in a double-dummy design. […]
Daily Sleep Interference Scale (DSIS): Pain frequently interferes with sleep, and sleep is important to quality of life. […] DSIS is commonly used in neuropathic pain studies and is assessed on an 11-point scale. […]
Patient Global Impression of Change (PGIC): The PGIC is commonly used in neuropathic pain studies, and the Initiative on Methods, Measurement, and Pain Assessment in Clinical Trials (IMMPACT) group recommends it as a core outcome measure for chronic pain studies and is thus evaluated in this study.

CC(C)C[C@H](CN)CC(=O)O [Pregabalin, reference compound]
Incidence of creatinine clearance decrease (adverse event): 1.9%
